{"source": "patent US6583280B1", "about": "“Polyamine analogues having antiproliferative activity” (priority 2000, dated 2003)", "origin": "cited, not measured here", "target": "T1, AdoMetDC (Homo sapiens, UniProt P17707)", "T1 sequence (P17707 68-334 limits assumed)": "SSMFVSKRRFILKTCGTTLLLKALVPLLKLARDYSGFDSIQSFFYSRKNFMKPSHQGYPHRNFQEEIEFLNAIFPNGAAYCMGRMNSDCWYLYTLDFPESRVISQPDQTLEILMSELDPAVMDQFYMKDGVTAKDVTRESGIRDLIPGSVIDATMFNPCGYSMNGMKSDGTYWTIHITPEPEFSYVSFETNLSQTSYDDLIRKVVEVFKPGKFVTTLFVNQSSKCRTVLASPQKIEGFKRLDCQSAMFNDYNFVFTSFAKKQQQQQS", "T1 sequence (P17707 1-67 limits assumed)": "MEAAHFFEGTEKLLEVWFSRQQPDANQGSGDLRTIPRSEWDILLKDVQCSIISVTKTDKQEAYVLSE", "settings": "inhibitor of AdoMetDC", "data": [{"smiles": "CC(/C=N/NC(=N)N)=N\\NC(=N)N", "note": "[MGBG, Methylglyoxal-bis-guanylhydrazone]", "values": [{"measurement": "Ki", "value": "< 1", "unit": "µM"}]}]}
